The results in this text go back to PubChem BioAssay AID602250 (The Scripps Research Institute Molecular Screening Center, 2012).

The structures appear in SMILES notation. This is a selection; strong and weak results do not stand in their true shares. Active and inactive are the calls of the source.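 How the source made its calls: active means inhibition above a per-plate cutoff, the plate's mean sample inhibition plus 3 SD (cut at about 24% in these data); inactive means the rest.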

A short description of the assay: calcium signal blockers in parental CHO-K1 cells – cell-based, Fluo-8 calcium fluorescence, full deck, 1536-well, counter-screen for M1 antagonist project, primary screen (AID 602250).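 Further: 0% = DMSO plus EC80 ATP and 100% = DMSO alone without ATP.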 The settings on record: ATP-induced calcium, Fluo-8 fluorescence, at 3 µM, active compounds read high.
What is called inhibition is the drop in the measured response relative to a control, in per cent. As for `O=[N+]([O-])c1ccc(-c2cc([N+](=O)[O-])c(O)c([N+](=O)[O-])c2)cc1`, the inhibition was inactive: -4.81%.

As for `C[As](=O)(O)c1cccc(C(=O)O)c1`, the inhibition was inactive: 2.57%.

For `O=[As](O)(c1ccc(O)cc1)c1ccccc1O`, the inhibition is inactive: -12.4%.

As for `O=P(Nc1ccccn1)(c1cccc2ccccc12)c1cccc2ccccc12`, the inhibition was inactive: 0.12%.

Take `Cc1cc(SC(NC=O)C(Cl)(Cl)Cl)ncn1` (stereo unspecified): the inhibition is inactive: -10.7%.

With `O=[N+]([O-])c1ccc(Nc2ccc(Oc3ccc([N+](=O)[O-])cc3[N+](=O)[O-])cc2)c([N+](=O)[O-])c1`, the inhibition is inactive: -15.2%.

As to `CCOC(=O)Nc1cccc([As](=O)(O)O)c1`, the inhibition was inactive: 12.3%.

For `COP(=O)(OC)N1CC1c1ccccc1` (stereo unspecified), the inhibition is inactive: 20%.

Take `Cc1cc(SC(NC(=O)c2ccccc2)C(Cl)(Cl)Cl)nc(C(C)C)n1` (stereo unspecified): the inhibition was inactive: -6.14%.

In the case of `CCOC(=O)Nc1ccc([As](=O)(O)O)c(O)c1`, the inhibition was inactive: -16.4%.

Turning to `O=C(O)C(O)c1ccc(N(CCCl)CCCl)cc1` (stereo unspecified), the inhibition is inactive: 11.7%.

Take `C/C=C1/CC(C)C(C)(O)C(=O)OCC2CCN3CCC(OC1=O)C23` (stereo unspecified): the inhibition is inactive: -0.9%.

Turning to `CC1CCNP(=O)(N(CCCl)CCCl)O1` (stereo unspecified), the inhibition is inactive: -5.28%.

As for `CCC(C)N(CC(C)C)C(=S)SC(NC(C)=O)C(Cl)(Cl)Cl` (stereo unspecified), the inhibition was inactive: -6.67%.

For `CSc1ccc(Nc2c([N+](=O)[O-])cc([N+](=O)[O-])cc2[N+](=O)[O-])cc1`, the inhibition is inactive: 10.3%.

Take `O=C(OC1CN2CCC1CC2)c1cccc([N+](=O)[O-])c1` (stereo unspecified): the inhibition is inactive: -7.25%.

`O=C(O)C(=O)c1ccc(N(CCCl)CCCl)cc1`: the inhibition is inactive: -5.32%.

For `O=C(Nc1ccncc1[N+](=O)[O-])c1ccc([N+](=O)[O-])cc1[N+](=O)[O-]`, the inhibition is inactive: -3.41%.

As to `O=C(COc1ccccc1)OC1CN2CCC1CC2` (stereo unspecified), the inhibition was inactive: -9.45%.

In the case of `COC(=O)C1(C)COP(=O)(N2CCCC2)OC1` (stereo unspecified), the inhibition was inactive: 2.64%.

Consider `COP1(=S)c2c(C)nn(CCC#N)c2N=C(c2ccc(F)cc2)N1C` (stereo unspecified), for which the inhibition was inactive: -7.26%.
